# Measurements published in PubChem BioAssay AID504357 (The Scripps Research Institute Molecular Screening Center, 2011).
# By UniProt entry, the sequences of proteins in these tests, tags left out.
# UniProt P35372, whole entry, looked up: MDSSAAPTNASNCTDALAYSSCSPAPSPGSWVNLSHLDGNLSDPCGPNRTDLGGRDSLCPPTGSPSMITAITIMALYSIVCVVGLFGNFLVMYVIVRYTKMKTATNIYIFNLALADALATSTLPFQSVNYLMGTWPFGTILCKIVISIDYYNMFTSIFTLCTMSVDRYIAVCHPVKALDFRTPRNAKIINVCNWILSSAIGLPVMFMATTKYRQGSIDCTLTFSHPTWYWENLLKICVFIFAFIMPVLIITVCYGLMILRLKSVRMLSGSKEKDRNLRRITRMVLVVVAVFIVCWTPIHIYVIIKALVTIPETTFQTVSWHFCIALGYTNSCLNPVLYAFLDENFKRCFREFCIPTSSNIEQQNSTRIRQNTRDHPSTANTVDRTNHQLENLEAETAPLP
# UniProt P41143, whole entry, looked up: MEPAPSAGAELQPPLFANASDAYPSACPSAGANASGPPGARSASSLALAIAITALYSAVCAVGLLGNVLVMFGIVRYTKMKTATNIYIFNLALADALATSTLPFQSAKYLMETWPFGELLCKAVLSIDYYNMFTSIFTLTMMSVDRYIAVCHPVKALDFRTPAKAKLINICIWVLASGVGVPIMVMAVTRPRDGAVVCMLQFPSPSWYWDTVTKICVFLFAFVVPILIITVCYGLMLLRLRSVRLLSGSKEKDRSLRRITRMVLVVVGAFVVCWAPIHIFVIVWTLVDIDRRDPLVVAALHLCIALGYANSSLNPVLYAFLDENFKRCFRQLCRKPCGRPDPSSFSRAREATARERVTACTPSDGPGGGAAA
# The entries are a selection whose mix differs from that of the whole data set. Active and inactive are the calls of the source. Rule as the data show it: active = inhibition above about 22% (passing the limit was not always enough); inactive = the rest.
# Target: Mu-type opioid receptor (Homo sapiens) + Delta-type opioid receptor (Homo sapiens) (UniProt P35372+P41143)
# Assay: OPRM1-OPRD1 heterodimer inverse agonism – cell-based, luminescence, primary screen (AID 504357);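 also: 0% = cells with DMSO and 100% = wells without cells with DMSO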
# Conditions: cell-based MOR-DOR heterodimer luminescence, at 9.3 µM, active compounds read high
row,SMILES,inhibition
1,CP(=O)(Nc1ccccc1F)Oc1ccccc1 (centres undefined),inactive: -4.52%
2,CC(C)c1ccc(OP(C)(=O)Nc2ccc(SC(F)(F)F)cc2)cc1 (centres undefined),inactive: -24.4%
3,CP(=O)(Nc1ccccc1)Oc1ccc(F)cc1 (centres undefined),inactive: 3.21%
4,CCCCCOc1ccc(NP(C)(=O)Oc2ccc(Cl)cc2Cl)cc1 (centres undefined),inactive: -13.6%
5,O=[N+]([O-])c1cc([N+](=O)[O-])c(OC2CCCCC2O)c([N+](=O)[O-])c1 (centres undefined),inactive: 4.21%
6,Cc1c([N+](=O)[O-])cc([N+](=O)[O-])c(Br)c1[N+](=O)[O-],inactive: 12.6%
7,CCN(CC)CCCOC(=O)C(O)(c1ccccc1)C1CCCCC1 (centres undefined),inactive: 8.35%
8,CCOC(=O)c1ccc(NP(C)(=O)Oc2ccc(F)cc2)cc1 (centres undefined),inactive: 0.2%
9,COc1ccc(OP(C)(=O)Nc2ccc(SC(F)(F)F)cc2)cc1 (centres undefined),inactive: -18.4%
10,Cc1c(C(c2ccc3c(c2)OCO3)c2c(C)n(C)n(-c3ccccc3)c2=O)c(=O)n(-c2ccccc2)n1C.O=[N+]([O-])c1cc([N+](=O)[O-])c(O)c([N+](=O)[O-])c1,inactive: 6.86%
11,O=[N+]([O-])c1ccc(OP2(=O)COCCO2)cc1 (centres undefined),inactive: 8.49%
12,O=[N+]([O-])c1cc([N+](=O)[O-])c(NCC2CCS(=O)(=O)C2)c([N+](=O)[O-])c1 (centres undefined),inactive: -21.1%
13,Cc1cc(-c2cccc3ccccc23)c(C)cn1.O=[N+]([O-])c1cc([N+](=O)[O-])c(O)c([N+](=O)[O-])c1,inactive: 21.2%
14,CN(C)CCOC(=O)C(O)(c1ccccc1)C1CCCCC1 (centres undefined),inactive: 5.51%
15,COc1ccc(NP(C)(=O)Oc2ccccc2OC)cc1 (centres undefined),inactive: 2.81%
16,COc1ccc(OP(C)(=O)Nc2cccc(Br)c2)cc1 (centres undefined),inactive: 22.9%
17,CN(C)C1(CNC(=O)c2ccc(Cl)c(S(N)(=O)=O)c2)CCCCC1,inactive: -315%
18,Cc1ccccc1NP(C)(=O)Nc1ccccc1C,inactive: 3.45%
19,CP(=O)(Nc1ccc2c(c1)OCCO2)Oc1ccccc1 (centres undefined),inactive: 2.39%
20,CCOP(C)(=S)SCC(=O)NC(C)(CC)C(=O)O (centres undefined),inactive: 4.98%
21,CP(=O)(Nc1ccc(SC(F)(F)F)cc1)Oc1ccc(F)cc1 (centres undefined),inactive: -26.9%
22,CN(C)C(=O)c1c([N+](=O)[O-])cc([N+](=O)[O-])cc1[N+](=O)[O-],inactive: -52.3%
23,CCCCN1CCC(C#N)(Nc2ccccc2)CC1,inactive: 11.1%
24,COc1ccccc1OP(C)(=O)Nc1ccccc1Br (centres undefined),inactive: 1.87%
25,CC(C)(C)c1ccc(OP(C)(=O)O)cc1,inactive: 0.79%

row,SMILES,inhibition
1,CP(=O)(Nc1ccc(Cl)cc1)Oc1ccc(F)cc1 (centres undefined),inactive: 7.2%
2,COc1ccccc1OP(C)(=O)Nc1c(C)n(C)n(-c2ccccc2)c1=O (centres undefined),inactive: 15.9%
3,O=C(OCCCN1CCCC1)C(O)(c1ccccc1)C1CCCCC1 (centres undefined),inactive: 16.8%
4,CP(=O)(Oc1ccccc1)N1CCOC1=O (centres undefined),inactive: 13.5%
5,CCc1ccc(OP(C)(=O)Nc2cccnc2)cc1 (centres undefined),inactive: -0.67%
6,CCN(CC)CC(O)COC(=O)C(O)(c1ccccc1)C1CCCCC1 (centres undefined),inactive: 12.3%
7,COc1ccc(OP(C)(=O)Nc2ccc(Br)cc2)cc1 (centres undefined),inactive: 1.04%
8,CCOC(=O)c1ccc(NP(C)(=O)Oc2ccc(Cl)cc2)cc1 (centres undefined),inactive: 4.33%
9,CP(=O)(OC12CC3CC(CC(C3)C1)C2)OC12CC3CC(CC(C3)C1)C2,inactive: -38.5%
10,CCCCCCCCCCCCCCCC1C[N+](C)(C)CCOP(C)(=O)O1 (centres undefined),inactive: 10.6%
11,CP(=O)(Nc1ccc(Cl)cc1Cl)Oc1ccccc1 (centres undefined),inactive: 2.89%
12,CP(=O)(OCCOc1ccccc1)OCCOc1ccccc1,inactive: 21.8%
13,COc1ccccc1OP(C)(=O)Nc1ccc(C)c(C)c1 (centres undefined),inactive: 8.11%
14,COc1ccc(OP(C)(=O)Nc2ccccc2Br)cc1 (centres undefined),inactive: 7.22%
15,O=C1C(O)=C([N+](=O)[O-])C(=O)C(O)=C1[N+](=O)[O-],inactive: 15.8%
16,Cc1cc(C)cc(OP(C)(=O)Nc2cccc(C(F)(F)F)c2)c1 (centres undefined),inactive: 2.23%
17,CP(=O)(Nc1ccccn1)Oc1ccccc1 (centres undefined),inactive: 4.28%
18,COc1ccccc1OP(C)(=O)Nc1ccc(C)cc1C (centres undefined),inactive: 15%
19,CCc1ccc(OP(C)(=O)O)cc1,inactive: 3.91%
20,Cc1c(NP(C)(=O)Oc2ccc(C(C)C)cc2)c(=O)n(-c2ccccc2)n1C (centres undefined),inactive: 8.86%
21,O=[N+]([O-])c1cc([N+](=O)[O-])c(Nc2ccccn2)c([N+](=O)[O-])c1,inactive: -13.3%
22,COc1ccc(OP(C)(=O)Nc2ccccn2)cc1 (centres undefined),inactive: 2.93%
23,CN(C)CCOC(=O)C(O)(c1ccccc1)C1CCCC1 (centres undefined),inactive: 14.8%
24,COc1ccccc1OP(C)(=O)Nc1ccc(Br)cc1 (centres undefined),inactive: 13.7%
